US6806267B1, “Apoptosis-inducing compounds” (priority 1998, dated 2004)

The chains behind the UniProt entries cited, without tags or fusion partners.
UniProt P30536, whole entry: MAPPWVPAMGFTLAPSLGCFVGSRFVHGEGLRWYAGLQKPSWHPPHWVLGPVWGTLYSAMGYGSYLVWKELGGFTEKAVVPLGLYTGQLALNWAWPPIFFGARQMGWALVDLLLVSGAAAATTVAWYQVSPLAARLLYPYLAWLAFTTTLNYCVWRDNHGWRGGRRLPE

Target: T1, peripheral-type benzodiazepine receptor (PBR) (Homo sapiens, UniProt P30536)
T1 construct: Cell homogenates (50 μg protein) were incubated with 0.5-50 nM [^3H]; PK 11195; endogenous in cells; host or cells: HL-60 cell homogenate
Assay: Radioligand binding assay, inhibition of [^3H]PK 11195 binding to HL-60 homogenates
Protocol: HL-60 cells were harvested by centrifugation at 600 g for 5 min and washing in phosphate-buffered saline. The resulting cell pellet was homogenised in 50 mM Tris/HCl buffer, pH 7.4 (2 ml), using an Ultraturrax homogeniser (10 sec) and then passed 5 times through a 21 gauge needle. Cell homogenates (50 μg protein) were incubated with 0.5-50 nM [^3H] PK 11195 in 50 mM Tris/HCl buffer, pH 7.4 (incubation buffer), in a total volume of 0.5 ml on ice. Total and non-specific/non-saturable binding in each case was determined in the absence and presence of 10 μM unlabelled PK 11195 respectively. All samples were incubated in triplicate for 60 min. The incubation mixtures were then filtered and counted as previously described (O'Beirne, et al., 1988). When testing the potency of a compound to inhibit [^3H] PK 11195 binding, samples were incubated with 2 nM [3H] PK 11195 and various concentrations (0.1 nM to 1 μM) of compound and subsequently treated exactly as above. The resulting Ki values were then generated by the use of the computer programs EBDA and LIGAND.
The amount of radioactivity bound in the presence of the displacer was expressed as a percentage of control bonding and the values represent the mean±SEM of triplicate determinations from one representative experiment performed at least twice. The Ki values were obtained as described in Methods section.

## CCC(C)N(C)C(=O)c1cc2ccccc2c(-c2ccccc2Cl)n1 (stereo not shown) [[^3H] PK 11195, reference compound]
  Kd: 17.7 ± 5 nM
